## Measured affinities in a library of Ab-14 heavy chain variants

Reference: Li et al. 2023, doi:10.1038/s41467-023-39022-2. File: FLAb, binding data.

Target peptide (SARS-CoV-2 spike, HR2 region): PDVDLGDISGINAS

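Phage display of a naive human antibody library on the peptide gave the parent. Designed CDR sequences, proposed from the first random library and measured here. Group labels follow the data file (Ctrl: baseline library sampled from a position-specific scoring matrix, with some repeated check sequences; Rand: our label for a block that the file lists under HC and that is probably the random mutants of the ten best first-round binders; En: ensemble of fine-tuned language models; GP: Gaussian process model; GPLM: also part of the Gaussian process libraries; HC: hill climbing; Gen: genetic algorithm; Gibbs: Gibbs sampling; a sequence that several methods proposed may carry one label only). In AlphaSeq, yeast of one mating type display the scFv and yeast of the other type display the target. Binding brings cells together so that they mate, and sequencing counts the barcode pairs among the diploids. Each replicate has its own calibration line, from reference interactions of the BCL2 family. Mating was done six times.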

Parent scFv Ab-14: VH joined to VL by three GGGGS repeats. Changes lie in the heavy chain CDRs alone.
VH: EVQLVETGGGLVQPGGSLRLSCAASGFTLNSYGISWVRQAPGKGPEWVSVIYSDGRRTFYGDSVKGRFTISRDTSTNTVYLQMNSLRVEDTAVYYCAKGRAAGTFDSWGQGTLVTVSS
VL: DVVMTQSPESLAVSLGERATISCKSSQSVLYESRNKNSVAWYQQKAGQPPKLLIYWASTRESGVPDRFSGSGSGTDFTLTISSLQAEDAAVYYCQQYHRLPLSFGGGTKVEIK

The parent's heavy chain CDRs are GFTLNSYGIS, VIYSDGRRTFYGDSVK, GRAAGTFDS; each variant's own CDRs replace them letter for letter.
The read-out is the apparent dissociation constant on a log10 scale (nM): the lower, the stronger.
The mean shown is taken over the replicates in which the pair was detected.
A pair that was not seen in any replicate is written "no signal"; this usually means weak binding, but a binder can also be missed.
A sequence measured in both rounds can read differently, since the two assays cover different ranges.

CDR-H1,CDR-H2,CDR-H3,group,"log10 Kd (nM), mean",detected,control signals
GFNLNEYGIS,VIYADGRRTFYADSVK,GEHAGTFDI,En_HC,0.42,6/6,0/18
GFVLNDYGIS,VIYSDGRRTFYKDSVK,GRAAGTFDS,GP_HC,2.57,1/6,1/18
GFTLDSYGIS,VISSDGRRTFYGDSVK,GRAAGTFDS,Ctrl,no signal,0/6,0/18
GFSLNSYGIS,VIYSDGRRTFYIDQVK,GNAAGTFDS,GP_Gen,no signal,0/6,0/18
GFHLNSYGIS,VIYSDGRRTFYGDSVK,GMTAGTFDS,GP_Gen,1.82,6/6,0/18
GFELLSYGIS,VIYSDGRRTFYIDSVK,GRNAGTFDS,Ctrl,1.62,6/6,0/18
GFDLDEYGIS,VIYADGRRTFYKDSVK,GQNAGTFDM,En_HC,-0.57,6/6,1/18
GFQLNEYGIS,VIYSDGRRTFYGDSVK,GRHAGTFDS,GPLM_Gibbs,0.67,6/6,0/18
GFFLNSYGIS,VIYSDGRRTFYNDSVK,GDAAGTFDS,Ctrl,no signal,0/6,0/18
GFDLNEYGIS,VIYADGRRTFYADDVK,GENAGTFDL,En_HC,-0.09,6/6,0/18
GFNLDEYGIS,VIYADGNRVFYADTVK,GLLGILYVV,En_Gibbs,no signal,0/6,0/18
GFDLNEYGIS,VIYADGVRQAYADSVK,GNNAGTFDI,En_Gen,2.57,4/6,0/18
GFTLNNYGIS,VIYSDGERTFYHDSVK,GRAAGTFLS,Ctrl,no signal,0/6,0/18
GFDLNEYGIS,VIYADGKKTAFVNTVK,GESGGNIDD,En_Gibbs,no signal,0/6,0/18
GFTLPDYGIS,VIYSDKRRTFYGDSVK,GRAALTFIS,Rand,2.50,1/6,0/18
GFDLNEYGIS,VIYADGKRQAYADSVK,GNVAGTFDV,En_Gen,-0.36,6/6,0/18
GFDLNEYGIS,VIYADGMRTAYADSVK,GNAAGTFDI,En_Gen,-0.15,5/6,0/18
GFTLDSYGIS,VIYSDGRRTFYADSVK,GRLAGTFDS,GPLM_Gen,0.12,6/6,0/18
GFDLNEYGIS,VIYADGVRTAYSDSVK,GNEAGTFDM,En_Gen,-0.82,6/6,0/18
GFDLNEYGIS,VIYADGVRTSYADSVK,GNVAGTFDL,En_Gen,-0.31,6/6,0/18
GFTLNSYGIS,VIYSDGRRTFYGDSVK,GRVAGTFDI,GPLM_Gen,1.37,6/6,0/18
GFNLNEYGIS,VIYSDGRRTFYTDSVK,GRSAGTFDS,GPLM_HC,2.18,4/6,0/18
GFSLNSYGIS,VIYSDGRRTAYADSVK,GRAAGTFDS,GPLM_Gen,-0.17,6/6,0/18
GFDDNSYGRS,VIYSDGRRTFYGDSVK,GRAAGTFDS,Ctrl,no signal,0/6,0/18
GFDLSEYGIS,VIYADGRRTFYTDSVK,GEVAGTFDV,En_HC,-0.51,6/6,0/18
GFDLDEYGIS,VIYADGRRTFYSDSVK,GEVAGTFDI,En_HC,-0.52,6/6,0/18
GFDLNSYGIS,VIYSDGRRTFYGDSVK,GRMAGTFDD,GP_Gibbs,0.75,6/6,1/18
GFSLNSYGIS,VIYSDGRRTFYSDSVK,GRSAGTFDS,GPLM_Gen,0.49,6/6,0/18
GFTLDSYGIS,VIYSDGRRTFYDDSVK,GQEAGTFDS,GP_HC,no signal,0/6,0/18
GFDLQEYGIS,VIYADGKRRAYENKVK,GQSVRSVVI,En_Gibbs,no signal,0/6,0/18
GFNLNEYGIS,VIYADGHRRAYVDNVK,GHLGGTFSM,En_Gibbs,-0.01,6/6,0/18
GFSLNSYGIS,VIYSDGRRTFYIDSVK,GRTAGTFDS,GPLM_Gen,0.15,1/6,0/18
GFVLNSYGIS,VIYSDGRRTFYSDSVK,GQAAGTFDS,GPLM_Gen,0.36,1/6,0/18
GFDLNEYGIS,VIYADGRRTAYADSVK,GKNAGTFDI,En_Gen,0.09,6/6,0/18
GFSLNEYGIS,VIYSDGRRTFYADDVK,GKAAGTFDS,GP_Gibbs,-0.04,6/6,1/18
GEDLDEYGVS,VIYADGRKQSYSNAVK,GAIAGNFDA,En_Gibbs,no signal,0/6,1/18
GFSLNMYGIS,VIYSDGRRTFYGDQVK,GEAAGTFDS,GP_Gibbs,1.03,6/6,0/18
GFSLNSYGIS,VIYSDGRRTFYGDSVK,GHQAGTFDS,GP_Gen,no signal,0/6,0/18
GFDLNEYGIS,VIYADGSRTYYADSVK,GNVAGTFDV,En_Gen,-0.53,6/6,2/18
GFDLNSYGIS,VIYSDGRRTFYCDSVK,GRAGGTFDS,GP_HC,no signal,0/6,0/18
GFSLNSYGIS,VIYSDGRRTFYGDSVK,GKEAGTFDN,GP_Gen,0.80,6/6,0/18
GFDLEEYGIS,VIYADGRRTAYADNVK,GMSGADLMF,En_Gibbs,1.16,6/6,0/18
GFTLNSYGIS,VIYSDGKRTFYGDSVK,GRNAGTFCS,Ctrl,no signal,0/6,0/18
GNDLEEYGIS,VIYADGMRTAAVDSVK,GDQSGTVVF,En_Gibbs,no signal,0/6,0/18
GFDLNEYGIS,VIYADGSRTAYADSVK,GENAGTFDT,En_Gen,-0.29,6/6,1/18
YFKLNEYGIS,VIYSDGRRTFYGDSVK,GRTAGTFDS,GP_Gibbs,no signal,0/6,0/18
GFDLDEYGIS,VIYADGMRTSYADSVK,GEAAGTFDV,En_HC,-0.29,6/6,1/18
FFKLEDYGIS,VIYADGKRKAYEQNVK,GQIAGTFDV,En_Gibbs,1.72,4/6,0/18
GFDLEDYGIS,VIYADGMRTAYADSVK,GENAGTFDI,En_Gen,0.66,6/6,0/18
GNTLNDYGIS,VYYSDGRRTQYIDSVK,GRAAGTFDS,Rand,3.01,1/6,0/18
GFDLNSYGIS,VIYSDGRRTFYDDSVK,GKAAGTFDS,Ctrl+GPLM_Gen,0.30,12/12,0/36
GMDLGEYGIS,VIYADGERASYTNNFK,GVLGGFLTV,En_Gibbs,no signal,0/6,0/18
GFDLNEYGIS,VIYADGMRTAYVDSVK,GENAGTFDI,En_Gen,-0.55,6/6,0/18
GKSLNSYGIS,VIYSDGRRTAYGDHVK,GRTAGTFDS,GP_Gibbs,1.27,5/6,0/18
GFDLDEYGIS,VIYADGMRTAYADDVK,GNNAGTFDV,En_Gen,-0.20,6/6,0/18
GFDLDEYGIS,VIYADGQRTAYADSVK,GEQAGTFDV,En_Gen,-0.14,6/6,1/18
GFTLNEYGIS,VIYSDGRRTFYGDQVK,GKAGGTFDS,Ctrl,1.25,6/6,0/18
GFTLNDYGIS,VIYSDGRRTEYIDSVK,GRAAMTFDS,Rand,no signal,0/6,1/18
GFELNSYGIS,VIYSDGRRTFYGDSVK,GRLAGTFSS,Ctrl,2.00,6/6,2/18
GFDLNSYGIS,VIYSDGRRTFYGDQVK,GQTAGTFDS,GP_Gen,0.09,6/6,0/18
GFSLNSYGIS,VIYSDGRRTFYADNVK,GRMAGTFDS,GP_Gen,0.45,6/6,0/18

A selection of 7 entries from above:

CDR-H1	CDR-H2	CDR-H3	group	log10 Kd (nM), mean	detected	control signals
GFDLEDYGIS	VIYADGMRTAYADSVK	GENAGTFDI	En_Gen	0.66	6/6	0/18
GFDLDEYGIS	VIYADGRRTFYKDSVK	GQNAGTFDM	En_HC	-0.57	6/6	1/18
GFTLPDYGIS	VIYSDKRRTFYGDSVK	GRAALTFIS	Rand	2.50	1/6	0/18
GFDLNSYGIS	VIYSDGRRTFYDDSVK	GKAAGTFDS	Ctrl+GPLM_Gen	0.30	12/12	0/36
GFDLQEYGIS	VIYADGKRRAYENKVK	GQSVRSVVI	En_Gibbs	no signal	0/6	0/18
GEDLDEYGVS	VIYADGRKQSYSNAVK	GAIAGNFDA	En_Gibbs	no signal	0/6	1/18
GFDLNEYGIS	VIYADGVRTSYADSVK	GNVAGTFDL	En_Gen	-0.31	6/6	0/18

Three control strains display no target. For all heavy chain designs, 1% of the pairings with them gave a signal, with a median of 2.08 and one signal in twenty below 0.84, so weak values seen in few replicates may be background. Also given: how often the same scFv was detected with the empty control strains.
The authors' rule: three or more of the six replicates give a measured affinity, fewer mean a poor binder.
A sequence that the file lists under several names has all its replicates pooled.